Here are results for one substance from patent US8591876B2, “Methods of decreasing sebum production in the skin” (priority 2010, dated 2013).

Where two headings read alike, the source gives them in different places.

This assay deals with insulin-stimulated SEB-1 sebocytes. The conditions noted are these: insulin 1 μg/mL; for Total Lipid Production: average ± SEM from three independent experiments; for % Reduction of total lipid production: versus vehicle.

In the case of S-nitrogluthione, the “Total Lipid Production” value runs as follows: (0.0012 mg/ml) 3630 ± 448 counts per minute/10^6 cells/hr; (0.012 mg/ml) 3430 ± 459 counts per minute/10^6 cells/hr; (0.12 mg/ml) 4100 ± 740 counts per minute/10^6 cells/hr. In addition, the “% Reduction of total lipid production” value (0.0012 mg/ml) is given as 18.1%, the “% Reduction of total lipid production” value (0.012 mg/ml) was determined as 22.6% and the “% Reduction of total lipid production” value (0.12 mg/ml) is 7.4%.
